From patent US20190031618A1, “BENZIMIDAZOLE DERIVATIVES USEFUL AS CB-1 INVERSE AGONISTS” (Janssen Pharmaceutica NV, priority 2015, published 2019)

Protein sequences, listed by entry. Tags and fused reporters are not part of them.
UniProt P21554, whole entry: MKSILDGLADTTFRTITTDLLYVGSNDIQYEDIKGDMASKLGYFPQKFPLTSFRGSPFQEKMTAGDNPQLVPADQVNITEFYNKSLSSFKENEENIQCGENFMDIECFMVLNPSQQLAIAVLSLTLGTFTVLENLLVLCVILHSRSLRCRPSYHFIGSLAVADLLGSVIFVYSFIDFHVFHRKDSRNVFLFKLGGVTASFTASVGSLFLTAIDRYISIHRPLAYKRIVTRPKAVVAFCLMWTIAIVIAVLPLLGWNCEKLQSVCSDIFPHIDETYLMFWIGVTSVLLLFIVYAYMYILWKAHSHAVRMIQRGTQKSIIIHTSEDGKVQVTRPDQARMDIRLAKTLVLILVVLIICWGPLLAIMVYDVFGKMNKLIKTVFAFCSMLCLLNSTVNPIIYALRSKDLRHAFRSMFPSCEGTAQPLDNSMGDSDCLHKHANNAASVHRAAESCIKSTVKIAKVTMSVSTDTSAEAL
UniProt P34972, whole entry: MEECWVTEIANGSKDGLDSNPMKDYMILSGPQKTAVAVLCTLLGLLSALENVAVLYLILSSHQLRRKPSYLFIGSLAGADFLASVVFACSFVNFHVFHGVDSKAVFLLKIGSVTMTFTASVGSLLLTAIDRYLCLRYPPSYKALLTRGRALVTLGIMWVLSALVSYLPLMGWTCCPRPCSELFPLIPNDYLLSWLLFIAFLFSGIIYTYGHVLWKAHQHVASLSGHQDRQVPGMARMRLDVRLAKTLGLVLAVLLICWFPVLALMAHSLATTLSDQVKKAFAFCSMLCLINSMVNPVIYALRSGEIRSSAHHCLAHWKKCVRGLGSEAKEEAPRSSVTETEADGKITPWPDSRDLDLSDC

Columns and labels:
[1] = biological target: Human CB1R (Cannabinoid receptor 1) (Homo sapiens, UniProt P21554); test: CB-1 in vitro cAMP (HTRF) assay
[2] = biological target: Human CB2R (Cannabinoid receptor 2) (Homo sapiens, UniProt P34972); test: CB-2 in vitro cAMP (HTRF) assay
From the text: CB1 and CB2 receptors are Gi-coupled GPCR. Activation of CB1 and CB2 receptors results in a decrease in cAMP production. An inverse agonist of the CB1 or CB2 receptor results in the opposite effect, an increase of cAMP production. The principle of this assay is based on HTRF® technology (Homogeneous Time-Resolved Fluorescence). The method is a competitive immunoassay between native cAMP produced by cells and the cAMP labeled with the fluorophore d2. The tracer binding is quantified by a Mab anti-cAMP labeled with Eu3+TBP-NHS Cryptate (supplied as part of the assay kit). The specific signal (i.e. energy transfer) is inversely proportional to the concentration of cAMP in the standard or sample.
Human CB1R (Cannabinoid receptor 1) was stably transfected in HEK-293 cells (DiscoveRx, cat: 93-0200C1). Human CB2R (Cannabinoid receptor 2) was stably transfected in HEK-293 cells (DiscoveRx, cat: 93-0201C1). Cell cultures were maintained in media: DMEM (Invitrogen Cat#12430-054) supplemented with 10% HI FBS (Invitrogen Cat#16140-071), 1% L-glutamine (Invitrogen Cat#25030-081), 0.2 mg/ml Hygromycin B (Invitrogen Cat#10687-010), 600 μg/mL G418 (Invitrogen Cat#10131-035), and 1× Penn/Strep (Invitrogen 15140-122). After cell expansion, aliquots were cryo-stored in media containing 5% DMSO (Pierce Cat#20684).
One day prior to experiments media was warmed to 37° C. and the cryo-stored cells were thawed in a 37° C. water bath. The cells were then added to media (10× volume) and the mixture was centrifuged at 1000 RPM for 5 min. The supernate was removed and the cells were re-suspended in media. A sample of the cell suspension was evaluated on a Cedex XS automated cell counter (Innovatis Systems) to determine viable cells/ml. Additional media was added to the cells to achieve a final cell density of 4E5 cells/mL. The cells were then plated into 384 well PDL white solid bottom plates (Greiner, Cat#781945) at 20 μL per well using a Multidrop (Thermo Scientific). Cells were removed from Row P (location of cAMP standards). Two columns of cells were plated into a clear bottom 384 well PDL coated plate (Greiner, Cat#781944) to view confluence the day of the assay. The cell plates were lidded and stored for 15 minutes in a hood, then transferred to an incubator (37° C., 5% CO2, 95% humidity) overnight.
DMSO was added to all wells of 384 well V bottom polystyrene plate (Greiner, Cat#781280) except to columns 1 and 13, rows O and P and wells M13-M23 and N13-N23. Test compounds (60 μL, 10 mM) were added to Column 1 and 13 (A1 through N1 and A13 through L13). Test compounds were serially diluted 1/3 by transferring and mixing 20 μl sample with 40 μL DMSO.
DMSO (40 μL) was added to wells of 384 well V bottom polystyrene plate: O2 through O11, M14 through M23, N14 through N23, and O14 through O23. AM630 (also known as [6-iodo-2-methyl-1-[2-(4-morpholinyl)ethyl]-1H-indol-3-yl](4-methoxyphenyl)-methanone, Cayman Chemical, Cat#10006974) (60 μL, 10 mM) was added to O1; and 1-(2,4-dichlorophenyl)-7-[(4-fluorophenyl)methylene]-4,5,6,7-tetrahydro-N-1-piperidinyl-1H-benzimidazole-3-carboxamide (60 μL, 10 mM) was added to N13. The control was serially diluted 1/3 by transferring and mixing 20 μl sample with 40 μL DMSO. This process resulted 11 doses per control, 10 mM to […].
Cells plated the day prior to the assay in clear bottom plates were viewed on an inverse microscope to ensure confluency in the range of 60-75%. […]

[3] = read-out: CB1 HEK_cAMP EC50, HEK cells, 250 nM forskolin, mean where tested more than once
[4] = read-out: CB2 HEK_cAMP EC50, HEK cells, 250 nM forskolin, mean where tested more than once
[5] = read-out: CB1 HEK_cAMP EC50, HEK cells, 250 nM forskolin, mean where tested more than once, tested form: trifluoroacetate
[6] = read-out: CB2 HEK_cAMP EC50, HEK cells, 250 nM forskolin, mean where tested more than once, tested form: trifluoroacetate

Structure (SMILES) | EC50 [1, 3] | EC50 [2, 4] | EC50 [1, 5] | EC50 [2, 6]
CCOC(=O)N1C2CCC1CC(n1c(CC(C)C)nc3ccc(C(c4ccc(Cl)cc4)c4nccs4)cc31)C2 (centres unmarked) | > 10000 nM | > 10000 nM |  | 
CCc1nc2ccc(C(c3ccc(Cl)cc3)c3ccc(Cl)cc3)cc2n1C(C)Cc1ccc(Cl)cc1 (racemic) | 38.2 nM | > 10000 nM |  | 
Cc1nc2ccc(C(c3ccc(Cl)cc3)c3nccs3)cc2n1C1CC2CCC(C1)N2S(=O)(=O)C(F)(F)F (centres unmarked) | > 10000 nM |  |  | 
Cc1nc2ccc(C(c3ccc(Cl)cc3)c3nccs3)cc2n1C1CCCCC1 (centres unmarked) | 89.9 nM | > 10000 nM |  | 
CCOC(=O)N1C2CCC1CC(n1c(-c3ccncc3)nc3ccc(C(c4ccc(Cl)cc4)c4nccs4)cc31)C2 (centres unmarked) | > 10000 nM | > 10000 nM |  | 
O=S(=O)(N1C2CCC1CC(n1c(-c3ccncc3)nc3ccc(C(c4ccc(Cl)cc4)c4nccs4)cc31)C2)C(F)(F)F (centres unmarked) | 7240 nM | > 10000 nM |  | 
O=C(O)c1ccc(S(=O)(=O)N2CC(n3c(C4CC4)nc4ccc(C(c5ccc(Cl)cc5)c5ccc(Cl)cc5)cc43)C2)cc1 | 64.9 nM | 8840 nM |  | 
Clc1ccc(C(c2ccc3ncn(C4CCCCC4)c3c2)c2nccs2)cc1 (centres unmarked) | 243 nM | > 10000 nM |  | 
CCOC(=O)N1C2CCC1CC(n1cnc3ccc(C(c4ccc(Cl)cc4)c4nccs4)cc31)C2 (centres unmarked) | 243 nM | > 10000 nM |  | 
CCc1nc2ccc(C(c3ccc(Cl)cc3)c3nccs3)cc2n1CC(O)c1ccc(Cl)cc1 (centres unmarked) | 316 nM | > 10000 nM |  | 
CCOC(=O)N1C2CCC1CC(n1c(CC)nc3ccc(C(c4ccc(Cl)cc4)c4nccs4)cc31)C2 (centres unmarked) | 2720 nM | > 10000 nM |  | 
CCOC(=O)N1C2CCC1CC(n1c(C)nc3ccc(C(c4ccc(Cl)cc4)c4nccs4)cc31)C2 (centres unmarked) | > 10000 nM | > 10000 nM |  | 
CC(C)Cc1nc2ccc(C(c3ccc(Cl)cc3)c3nccs3)cc2n1C1CC2CCC(C1)N2S(=O)(=O)C(F)(F)F (centres unmarked) | > 10000 nM |  |  | 
CCOC(=O)N1C2CCC1CC(n1c(C3CCCC3)nc3ccc(C(c4ccc(Cl)cc4)c4nccs4)cc31)C2 (centres unmarked) | > 10000 nM | > 10000 nM |  | 
O=S(=O)(N1C2CCC1CC(n1c(C3CCC3)nc3ccc(C(c4ccc(Cl)cc4)c4nccs4)cc31)C2)C(F)(F)F (centres unmarked) | > 10000 nM | > 10000 nM |  | 
O=S(=O)(N1C2CCC1CC(n1c(-c3cccnc3)nc3ccc(C(c4ccc(Cl)cc4)c4nccs4)cc31)C2)C(F)(F)F (centres unmarked) | 2780 nM | > 10000 nM |  | 
CCc1nc2ccc(C(c3ccc(Cl)cc3)c3ccc(Cl)cc3)cc2n1C[C@H](C)c1ccccc1 | 33.2 nM | 3650 nM |  | 
O=C(O)c1ccc(N2CCC(n3c(C4CC4)nc4ccc(C(c5ccc(Cl)cc5)c5ccc(Cl)cc5)cc43)CC2)cc1 | 290 nM | 3620 nM |  | 
O=S(=O)(N1C2CCC1CC(n1c(C3CCCC3)nc3ccc(C(c4ccc(Cl)cc4)c4nccs4)cc31)C2)C(F)(F)F (centres unmarked) | > 10000 nM | > 10000 nM |  | 
O=C(O)c1cccc(CN2CC(n3c(C4CC4)nc4ccc(C(c5ccc(Cl)cc5)c5ccc(Cl)cc5)cc43)C2)c1 |  |  | 26.7 nM | 3000 nM
C[C@H](Cn1c(C2CC2)nc2ccc(C(c3ccccc3)c3ccc(Cl)cc3)cc21)c1ccccc1 (some centres unmarked) | 410 nM | > 10000 nM |  | 
O=S(=O)(N1C2CCC1CC(n1cnc3ccc(C(c4ccc(Cl)cc4)c4nccs4)cc31)C2)C(F)(F)F (centres unmarked) | 34.7 nM | > 10000 nM |  | 
CCOC(=O)N1C2CCC1CC(n1c(-c3ccccn3)nc3ccc(C(c4ccc(Cl)cc4)c4nccs4)cc31)C2 (centres unmarked) | > 10000 nM | > 10000 nM |  | 
CCOC(=O)N1C2CCC1CC(n1c(C(C)C)nc3ccc(C(c4ccc(Cl)cc4)c4nccs4)cc31)C2 (centres unmarked) | 719 nM | > 10000 nM |  | 

Structure (SMILES) | EC50 [1, 3] | EC50 [2, 4] | EC50 [1, 5] | EC50 [2, 6]
O=S(=O)(N1C2CCC1CC(n1c(-c3ccc(Cl)cc3)nc3ccc(C(c4ccc(Cl)cc4)c4nccs4)cc31)C2)C(F)(F)F (centres unmarked) | > 10000 nM | > 10000 nM |  | 
CC(Cn1c(CC(F)(F)F)nc2ccc(C(c3ccc(Cl)cc3)c3nccs3)cc21)c1ccc(Cl)cc1 (centres unmarked) | 1180 nM | > 10000 nM |  | 
Cc1nc2ccc(C(c3ccc(Cl)cc3)c3ccc(Cl)cc3)cc2n1C[C@@H](C)c1ccccc1 | 416 nM | > 10000 nM |  | 
CCc1nc2ccc(C(c3ccc(Cl)cc3)c3nccs3)cc2n1C(C)Cc1ccc(Cl)cc1 (centres unmarked) | 162 nM | > 10000 nM |  | 
OC(Cn1c(C2CC2)nc2ccc(C(c3ccc(Cl)cc3)c3nccs3)cc21)c1ccc(Cl)cc1 (centres unmarked) | 436 nM | > 10000 nM |  | 
O=C(O)c1cccc(CN2CCC(n3c(C4CC4)nc4ccc(C(c5ccc(Cl)cc5)c5ccc(Cl)cc5)cc43)C2)c1 (centres unmarked) | 363 nM | 6890 nM |  | 
CC(Cc1ccc(Cl)cc1)n1c(C2CC2)nc2ccc(C(c3ccc(Cl)cc3)c3nccs3)cc21 (centres unmarked) | 240 nM | > 10000 nM |  | 
C[C@H](Cn1c(C2CC2)nc2ccc(C(c3ccccc3)c3ccccc3)cc21)c1ccccc1 | 2810 nM | > 10000 nM |  | 
O=S(=O)(N1C2CCC1CC(n1c(-c3ccccn3)nc3ccc(C(c4ccc(Cl)cc4)c4nccs4)cc31)C2)C(F)(F)F (centres unmarked) | > 10000 nM |  |  | 
COC(=O)CCNC(=O)c1ccc(S(=O)(=O)N2CCC(n3c(C4CC4)nc4ccc(C(c5ccc(Cl)cc5)c5ccc(Cl)cc5)cc43)CC2)cn1 |  |  | 27.5 nM | > 10000 nM
O=S(=O)(c1ccc(Cl)cc1)N1CCC(n2c(C3CC3)nc3ccc(C(c4ccc(Cl)cc4)c4ccc(Cl)cc4)cc32)CC1 | 4.7 nM | > 10000 nM |  | 
O=C(O)c1ccc(S(=O)(=O)N2CC(n3c(C4CC4)nc4ccc(C(c5ccc(Cl)cc5)c5ccc(Cl)cc5)cc43)C2)o1 | 596 nM | 3960 nM |  | 
CC(C)c1nc2ccc(C(c3ccc(Cl)cc3)c3nccs3)cc2n1C1CC2CCC(C1)N2S(=O)(=O)C(F)(F)F (centres unmarked) | > 10000 nM |  |  | 
CCc1nc2ccc(C(c3ccc(Cl)cc3)c3nccs3)cc2n1C1CC2CCC(C1)N2S(=O)(=O)C(F)(F)F (centres unmarked) | 867 nM | > 10000 nM |  | 
CCCc1nc2ccc(C(c3ccc(Cl)cc3)c3nccs3)cc2n1C1CC2CCC(C1)N2C(=O)OCC (centres unmarked) | 4320 nM | > 10000 nM |  | 
CCOC(=O)N1C2CCC1CC(n1c(-c3ccc(Cl)cc3)nc3ccc(C(c4ccc(Cl)cc4)c4nccs4)cc31)C2 (centres unmarked) | 1760 nM | 1630 nM |  | 
O=C(O)c1ccc(S(=O)(=O)N2CCC(n3c(C4CC4)nc4ccc(C(c5ccc(Cl)cc5)c5ccc(Cl)cc5)cc43)CC2)cn1 |  |  | 10 nM | 2650 nM
O=C(O)CCNC(=O)c1ccc(S(=O)(=O)N2CCC(n3c(C4CC4)nc4ccc(C(c5ccc(Cl)cc5)c5ccc(Cl)cc5)cc43)CC2)cn1 | 85.4 nM | 4400 nM |  | 
COC(=O)c1nc2ccc(C(c3ccc(Cl)cc3)c3nccs3)cc2n1C1CC2CCC(C1)N2S(=O)(=O)C(F)(F)F (centres unmarked) | 196 nM | > 10000 nM |  | 
O=C(O)c1ccc(S(=O)(=O)N2CCC(n3c(C4CC4)nc4ccc(C(c5ccc(Cl)cc5)c5ccc(Cl)cc5)cc43)C2)o1 (centres unmarked) | 130 nM | 10300 nM |  | 
CCOC(=O)c1nc2ccc(C(c3ccc(Cl)cc3)c3nccs3)cc2n1C1CC2CCC(C1)N2C(=O)OCC (centres unmarked) | > 10000 nM | > 10000 nM |  | 
O=C(O)c1ccc(S(=O)(=O)N2CCC(n3c(C4CC4)nc4ccc(C(c5ccc(Cl)cc5)c5ccc(Cl)cc5)cc43)C2)cc1 (centres unmarked) | 154 nM | > 10000 nM |  | 
O=S(=O)(N1C2CCC1CC(n1c(C3CC3)nc3ccc(C(c4ccc(Cl)cc4)c4nccs4)cc31)C2)C(F)(F)F (centres unmarked) | > 10000 nM |  |  | 

Read-outs that look alike come from different tables or passages of the source.
